Assay [1] concerns the target T1, fat cell β receptor (β3A -adrenergic receptor) (Rattus norvegicus, UniProt P26255).
T1 construct: expressed in transfected cells
T1 sequence (P26255 1-400): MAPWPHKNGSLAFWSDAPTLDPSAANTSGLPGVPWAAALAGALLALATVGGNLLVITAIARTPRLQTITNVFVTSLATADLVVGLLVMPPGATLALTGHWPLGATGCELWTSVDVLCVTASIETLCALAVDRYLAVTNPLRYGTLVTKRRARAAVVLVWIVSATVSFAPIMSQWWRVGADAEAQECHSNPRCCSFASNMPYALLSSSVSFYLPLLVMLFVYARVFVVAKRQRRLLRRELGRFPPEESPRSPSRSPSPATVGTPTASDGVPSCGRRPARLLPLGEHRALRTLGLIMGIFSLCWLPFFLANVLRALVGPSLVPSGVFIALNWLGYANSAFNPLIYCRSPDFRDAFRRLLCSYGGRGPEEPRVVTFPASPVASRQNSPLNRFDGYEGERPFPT
The assay is described as follows: Inhibition of BRL 37344-induced cAMP accumulation in transfected CHO cells. The following applies: read-out: inhibition of BRL 37344-induced cAMP accumulation. Format: cell-based. The source says:
Using a protocol for cotransfection of CHO cells (a 1.5 kb fragment was excised from pBluescript using Saci (present in the multiple cloning site of the vector) and BamHI and inserted into the Sac/BamH/sites of PSVL (Pharmacie). CHO-K1 cells were cotransfected with pSVL and pMSVneo (neomycin resistance plasmid) F. Z. Chung, C. D. Wang, P. C. Potter, J. C. Venter and C. M. Fraser, J. Biol. Chem. 263, 4052 (1988) using the CaPO4 precipitation technique. Stable transfectants were obtained by growth of the cells in culture medium containing Geneticin (500 μg/ml); colonies derived from single cells were isolated and expanded.
In general terms: cAMP levels reflect the balance of adenylyl cyclase and phosphodiesterase activity.

The target of assay [2] is β3A -adrenergic receptor (Rattus norvegicus, UniProt P26255). The assay is described as follows: biochemical.

This note sets out measurements from patent publication US5418160A, “Cloned cell line expressing rat β3A adrenergic receptor” (The United States as represented by the Secretary of the …, priority 1991, dated 1995).

A word on the inhibition: it is the percentage by which the read-out fell short of the control. Usually Kd stands for the equilibrium constant for the complex coming apart. Higher therefore signals weaker binding.

The structures appear in SMILES notation.

Turning to `Cc1ccc(OCC(O)C(C)NC(C)C)c2c1CCC2` (centres unmarked) [118,51], the inhibition at 100 µM in assay [1] is 60%. Molecule `CC(C)(C)NCC(O)COc1cccc2[nH]c(C#N)c([125I])c12` (centres unmarked) [[^125 1]-ICYP, [^125 1]-iodocyanopindolol] yielded a Kd in assay [2] of 1.3 ± 0.4 nM.
